We go through 1 molecule from BindingDB's records for 35526478.

Chains of the proteins cited; added tags and fusions are not shown. Residues count along the entry.
UniProt P06276, 29-602 limits assumed: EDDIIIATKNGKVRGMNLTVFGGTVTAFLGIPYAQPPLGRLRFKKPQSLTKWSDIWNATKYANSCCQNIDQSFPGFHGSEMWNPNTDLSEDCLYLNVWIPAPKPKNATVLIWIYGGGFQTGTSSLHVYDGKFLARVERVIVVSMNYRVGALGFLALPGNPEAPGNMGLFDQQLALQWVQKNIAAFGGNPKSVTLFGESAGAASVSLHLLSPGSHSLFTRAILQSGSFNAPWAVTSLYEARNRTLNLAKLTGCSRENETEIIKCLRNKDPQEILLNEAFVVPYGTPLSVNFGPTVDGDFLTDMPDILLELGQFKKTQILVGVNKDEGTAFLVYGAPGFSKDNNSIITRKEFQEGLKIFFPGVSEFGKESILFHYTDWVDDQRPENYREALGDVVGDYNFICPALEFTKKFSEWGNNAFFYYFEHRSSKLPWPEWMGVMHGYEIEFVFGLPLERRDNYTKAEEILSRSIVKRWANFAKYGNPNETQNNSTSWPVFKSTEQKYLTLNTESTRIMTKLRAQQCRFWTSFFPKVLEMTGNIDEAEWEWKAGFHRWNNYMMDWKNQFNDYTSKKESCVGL

SMILES strings stand for the structures.

The assay has as its target Cholinesterase (Homo sapiens, UniProt P06276). Briefly: ASSAY_NAME: ChEMBL_2201900 (CHEMBL5114608) DESCRIPTION: Reactivation of tabun induced inhibition of BChE in human plasma using ATCh as substrate by Ellman's method. For orientation: DTNB colorimetry detects thiols as they appear.

Take `NC(=O)c1cc[n+](CCCC[n+]2ccc(/C=N/O)cc2)cc1`: the Ki (usually a dissociation constant, usually derived from enzyme kinetics or from competition with a known ligand) is 420 µM.
